Test results as given in patent US20050106249A1 (priority 2002, published 2005).
Like-named read-outs stand apart in the source and are kept apart here.

Assays:
[1] = male, human, in vivo
[2] = human, in vivo
[3] = Mandema et al. 1996; oral solution 20 mg; cited from earlier work

SMILES: COc1ccc2c3c1OC1C(=O)CC[C@@]4(O)[C@@H](C2)N(C)CC[C@]314 (stereo partly drawn) [oxycodone, 4,5-epoxy-14-hydroxy-3-methoxy-17-methylmorphinan-6-one]
- ka mean value [1]: 6.48 h⁻¹
- ka mean value [2]: 4.19 h⁻¹
- ka mean value [3]: 4.19 h⁻¹
